Measurements as given in publication PMC8720082.

Test system: N=C(N)NCCC[C@H](N)C(=O)O
Assay: purified protein
Conditions: 100 mM MES/KOH pH 6.5, 5 mM MgCl2, 37 °C, 0.5 to 20 mM L-arginine

## SpyADI (native, unmodified) (Streptococcus pyogenes NZ131)
  Km: 940 ± 300 µM
